Values of other authors, collected in US20090035385A1, “COMPOSITIONS INCLUDING IRON” (DRUGTECH CORPORATION, priority 2004, published 2009).

Conditions: cited from earlier work

Question: What does the source list for ferrous sulfate?
Answer: average iron absorption rate (days 21 through 30 of daily iron supplementation, published data): 5.1%; average iron absorption rate (iron supplementation days 1 through 20, conventionally accepted): 15%

Where two headings read alike, the source gives them in different places.
